Test system: acute focal cerebral ischemia (MCA occlusion)

`CO[C@]12CC[C@@]3(C[C@@H]1C(C)(C)O)[C@H]1Cc4ccc(O)c5c4[C@@]3(CCN1CC1CC1)[C@H]2O5` was tested, and the “effect in prolonging survival” value (cats after MCA occlusion, in words) was “little effect in prolonging survival”, the “mortality, 24-28 hours” value (cats dying 24-28 hours after MCA occlusion, i.p. dose 6 h after occlusion, then osmotic pump infusion) was 8% and the “mortality, 48-72 hours” value (cats dying 48-72 hours after MCA occlusion, i.p. dose 6 h after occlusion, then osmotic pump infusion) was 8%. For the same compound, the “mortality, less than 24 hours” value (cats dying less than 24 hours after MCA occlusion, i.p. dose 6 h after occlusion, then osmotic pump infusion) was 84% and the “lived up to 7 days” value (cats surviving to 7 days after MCA occlusion, i.p. dose 6 h after occlusion, then osmotic pump infusion) was 0%.
